The results in this text go back to ChEMBL document CHEMBL2429821, “A Casein kinase 1/Checkpoint kinase 1 pyrazolo-pyridine protein kinase inhibitor as novel activator of the p53 pathway” (Bioorg Med Chem Lett, 2013).

In this assay the target is 3-phosphoinositide-dependent protein kinase 1 (Homo sapiens) (UniProt O15530). The assay is described as follows: Inhibition of human PDK1 assessed as residual activity at 25 uM relative to control.

On to `COc1cc(OC)c(C=C2C(=O)Nc3ccccc32)c(OC)c1`, for which the Activity turned out to be 89%.
